Test results published in patent publication US20110190218A1 (KARLSRUHE INSTITUTE OF TECHNOLOGY, published 2011).

How the values were obtained:
androgen receptor = biological target: T1, androgen receptor (human, UniProt P10275 1-920, limits assumed); assay: GST pull-down (15 µg GST fusion, 400 µg 22Rv.1 lysate, vehicle or DHT), immunoblot
T1 construct: also called AR; human AR
T1 sequence (looked up): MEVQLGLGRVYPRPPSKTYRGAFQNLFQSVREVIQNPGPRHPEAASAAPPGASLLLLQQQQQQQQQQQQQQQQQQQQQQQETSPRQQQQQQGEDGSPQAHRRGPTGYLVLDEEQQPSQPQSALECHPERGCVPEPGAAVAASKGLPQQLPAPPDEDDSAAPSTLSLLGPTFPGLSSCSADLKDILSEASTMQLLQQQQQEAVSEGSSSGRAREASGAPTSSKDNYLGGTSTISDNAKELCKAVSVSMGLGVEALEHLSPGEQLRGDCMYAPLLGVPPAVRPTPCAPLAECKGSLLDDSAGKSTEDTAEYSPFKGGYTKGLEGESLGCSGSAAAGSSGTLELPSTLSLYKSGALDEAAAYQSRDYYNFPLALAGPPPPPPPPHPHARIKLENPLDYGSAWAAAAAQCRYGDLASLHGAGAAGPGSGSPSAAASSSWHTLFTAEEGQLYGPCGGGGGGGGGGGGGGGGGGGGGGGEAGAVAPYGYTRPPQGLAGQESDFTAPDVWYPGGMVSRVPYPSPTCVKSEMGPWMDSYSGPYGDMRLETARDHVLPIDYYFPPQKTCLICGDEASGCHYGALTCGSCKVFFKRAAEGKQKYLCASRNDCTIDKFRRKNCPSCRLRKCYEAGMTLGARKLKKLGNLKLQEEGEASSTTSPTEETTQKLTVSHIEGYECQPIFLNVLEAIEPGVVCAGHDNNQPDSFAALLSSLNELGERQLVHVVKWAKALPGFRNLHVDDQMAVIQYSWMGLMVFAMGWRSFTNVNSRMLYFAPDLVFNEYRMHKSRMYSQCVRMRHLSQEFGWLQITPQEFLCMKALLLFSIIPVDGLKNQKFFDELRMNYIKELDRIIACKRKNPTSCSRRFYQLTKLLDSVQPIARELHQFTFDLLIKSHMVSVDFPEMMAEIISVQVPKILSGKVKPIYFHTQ

Rb = biological target: T2, Rb (human, UniProt P06400 2-928); assay: GST pull-down (15 µg GST fusion, 400 µg 22Rv.1 lysate), immunoblot
T2 construct: also called retinoblastoma protein
T2 sequence (looked up): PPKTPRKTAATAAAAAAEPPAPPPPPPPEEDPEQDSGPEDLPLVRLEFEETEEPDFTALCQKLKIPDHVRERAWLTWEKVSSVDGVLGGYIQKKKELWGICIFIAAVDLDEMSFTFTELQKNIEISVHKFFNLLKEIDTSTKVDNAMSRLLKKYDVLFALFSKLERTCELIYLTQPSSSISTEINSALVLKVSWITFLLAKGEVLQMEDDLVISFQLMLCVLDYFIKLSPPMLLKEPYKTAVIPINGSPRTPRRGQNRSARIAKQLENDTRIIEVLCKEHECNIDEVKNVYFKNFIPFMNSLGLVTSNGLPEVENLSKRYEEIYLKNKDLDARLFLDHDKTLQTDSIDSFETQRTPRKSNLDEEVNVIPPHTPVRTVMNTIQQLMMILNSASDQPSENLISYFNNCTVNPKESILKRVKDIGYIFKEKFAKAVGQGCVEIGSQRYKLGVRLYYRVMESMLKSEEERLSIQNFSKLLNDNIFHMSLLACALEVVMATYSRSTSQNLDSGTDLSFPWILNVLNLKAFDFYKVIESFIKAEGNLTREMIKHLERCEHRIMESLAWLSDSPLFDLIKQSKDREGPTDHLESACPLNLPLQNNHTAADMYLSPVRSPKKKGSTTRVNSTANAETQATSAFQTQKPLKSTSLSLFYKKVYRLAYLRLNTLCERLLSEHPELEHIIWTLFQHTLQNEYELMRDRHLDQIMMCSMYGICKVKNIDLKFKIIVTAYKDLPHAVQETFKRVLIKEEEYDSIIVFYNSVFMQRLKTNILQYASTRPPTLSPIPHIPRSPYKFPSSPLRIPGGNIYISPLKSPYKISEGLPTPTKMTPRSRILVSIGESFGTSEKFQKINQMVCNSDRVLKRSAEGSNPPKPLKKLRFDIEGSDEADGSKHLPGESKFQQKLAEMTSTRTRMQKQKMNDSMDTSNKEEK

Raf-1 = biological target: T3, Raf-1 (human); assay: as above
T3 construct: also called c-Raf

[1] = biological target: T4, Bag-1L (in lysates from Bag-1L-transfected cells) (human, UniProt Q99933 1-345); assay: GST pull-down from lysates of Bag-1L-transfected cells, immunoblot with Bag-1L specific antibody
T4 construct: Untagged Bag-1L as the soluble partner in the test for dimerization; also called human Bag-1L; p50
T4 sequence: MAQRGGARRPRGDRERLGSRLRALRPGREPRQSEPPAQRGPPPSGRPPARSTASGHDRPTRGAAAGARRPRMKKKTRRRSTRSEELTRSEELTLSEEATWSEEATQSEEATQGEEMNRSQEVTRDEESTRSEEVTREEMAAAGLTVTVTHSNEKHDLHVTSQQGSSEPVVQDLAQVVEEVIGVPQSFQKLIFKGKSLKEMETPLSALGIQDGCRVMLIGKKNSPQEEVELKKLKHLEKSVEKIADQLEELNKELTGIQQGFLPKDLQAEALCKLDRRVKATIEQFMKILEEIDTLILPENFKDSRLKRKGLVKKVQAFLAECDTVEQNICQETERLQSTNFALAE

Measured: binding result

B1: GST-Bag-1L-(202-269) (other)
chain: MSPILGYWKIKGLVQPTRLLLEYLEEKYEEHLYERDEGDKWRNKKFELGLEFPNLPYYIDGDVKLTQSMAIIRYIADKHNMLGGCPKERAEISMLEGAVLDIRYGVSRIAYSKDFETLKVDFLSKLPEMLKMFEDRLCHKTYLNGDHVTHPDFMLYDALDVVLYMDPMCLDAFPKLVCFKKRIEAIPQIDKYLKSSKYIAWPLQGWQATFGGGDHPPKTPLSALGIQDGCRVMLIGKKNSPQEEVELKKLKHLEKSVEKIADQLEELNKELTGIQQGFLPKDLQAE
notes: Bacterially purified GST fusion, 15 µg on glutathione beads in the pull-downs
no binding: androgen receptor | Rb | Raf-1 | [1]
